The nature of data set [1]: Mice tolerability experiment (SCID mice). It is filed as in vivo. The method, then:
To assess mice preclinical therapeutic index, mouse tolerability experiments were performed with F-VA-EXA, F-LALA-VA-EXA and M-SORAV conjugates. […] Mice were carefully monitored for weight loss or apparent signs of toxicity over the course of 21 days.

Chains of the proteins cited; added tags and fusions are not shown. Residues count along the entry.
UniProt P15328, 25-234 limits assumed: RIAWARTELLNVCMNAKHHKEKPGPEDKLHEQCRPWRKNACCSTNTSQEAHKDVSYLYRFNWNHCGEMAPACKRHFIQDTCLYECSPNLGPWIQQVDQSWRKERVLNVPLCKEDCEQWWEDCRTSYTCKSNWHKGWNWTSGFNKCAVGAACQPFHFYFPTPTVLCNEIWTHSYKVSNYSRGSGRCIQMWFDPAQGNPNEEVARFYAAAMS

The subject of another data set is SW-620 cancer model. Briefly: In vivo efficacy, SW-620 xenograft. Also on record: species or system SCID mice.
From the text: (§1) Four to five-week-old female CB-17 severe combined immunodeficient (SCID) mice are obtained and quarantined for 7 days prior to study initiation. Mice are inoculated subcutaneously with cells (5-10×10^6 cells per mouse) resuspended in PBS (OV-90, SW-620, KB, BT-474 cell lines) or 50% BD Matrigel (Corning®) in PBS (PA-1, IGROV-1, OVCAR-3, NCI-H2110 cell lines). When average tumor volume reached about 120-150 mm^3 mice are randomized (typically 7 mice per group) and treated by a single (unless stated otherwise) intravenous injection of PBS (negative control) or investigated antibody-drug conjugate. Tumor volumes are measured every 3-5 days using a caliper device (length×width) and calculated using the following formula V=4/3×π×R3, where R represents the radius. Mice are sacrificed when the tumor volume exceeded 1500 mm^3 or in case of ulceration of the tumor.
as §1, with “were” for “are”, “obtained from Janvier labs (Le Genest-Saint-Isle, France)” for “obtained”, “V=4/3×π×R^3,” for “V=4/3×π×R3,”

In data set [2] the test system is folate receptor alpha negative (FRα neg) BT-474 breast cancer model. Put plainly: In vivo efficacy, FRα negative BT-474 xenograft. As to conditions: IV once at 5 and 10 mg/kg (FIG. 17). Also on record: species or system SCID mice.
For a further data set, the system named is OV-90 cancer model. Briefly: In vivo efficacy, OV-90 xenograft. As to conditions: for toxicities observed in OV-90 xenograft study: IV once at 30 mg/kg (FIG. 11).
From the text: as §1
as §1, with “were” for “are”, “obtained from Janvier labs (Le Genest-Saint-Isle, France)” for “obtained”, “V=4/3×π×R^3,” for “V=4/3×π×R3,”

A further data set concerns KB cancer model. Put plainly: In vivo efficacy, KB xenograft. Further details: species or system SCID mice. As to conditions: IV once at 3, 6 and 12 mg/kg; NEG-VA-EXA 12 mg/kg (FIG. 13).
From the text: as §1
as §1, with “were” for “are”, “obtained from Janvier labs (Le Genest-Saint-Isle, France)” for “obtained”, “V=4/3×π×R^3,” for “V=4/3×π×R3,”

Data set [3] deals with T1, recombinant human folate receptor alpha protein (Homo sapiens, UniProt P15328).
T1 construct: purchased Sino Biological 11241-H08H
Put plainly: kd (1/s). The source says:
Table printed on a drawing sheet, FIGURE 5
Head of the field: kd (1/s)
Footnotes: ka: association rate constant, mean calculated over replicates / s.d. ka: standard deviation of association rate constant / kd: dissociation rate constant, mean calculated over replicates / s.d. kd: standard deviation of dissociation rate constant / KD: affinity constant, calculated as kd/ka / s.d. KD: standard deviation of affinity constant / n.d.: not determined
The patent's description of the figure: FIG. 5 represents in vitro surface plasmon resonance (SPR) binding experiments of conjugates against recombinant human folate receptor alpha protein, according to example 8.
First copying reader's note: Records are a mix of naked antibodies and their antibody-drug conjugates; the numbers 5, 10, 15, 20 at the left margin are line numbers, not table content.
Where the first naming reader finds the target: description_of_the_figure: binding experiments of conjugates against recombinant human folate receptor alpha protein

Another data set relates to cancer xenograft models. Put plainly: In vivo xenografts experiments overall (effective dose range). As to conditions: Table 10. Also on record: species or system SCID mice.
From the text: as §1
as §1, with “were” for “are”, “obtained from Janvier labs (Le Genest-Saint-Isle, France)” for “obtained”, “V=4/3×π×R^3,” for “V=4/3×π×R3,”

B1: M-SORAV (conjugate)
heavy: QVQLVQSGAEVVKPGASVKISCKASGYTFTGYFMNWVKQSPGQSLEWIGRIHPYDGDTFYNQKFQGKATLTVDKSSNTAHMELLSLTSEDFAVYYCTRYDGSRAMDYWGQGTTVTVSSASTKGPSVFPLAPSSKSTSGGTAALGCLVKDYFPEPVTVSWNSGALTSGVHTFPAVLQSSGLYSLSSVVTVPSSSLGTQTYICNVNHKPSNTKVDKKV[gap - human IgG1 Fc]
light: DIVLTQSPLSLAVSLGQPAIISCKASQSVSFAGTSLMHWYHQKPGQQPRLLIYRASNLEAGVPDRFSGSGSKTDFTLTISPVEAEDAATYYCQQSREYPYTFGGGTKLEIKRTVAAPSVFIFPPSDEQLKSGTASVVCLLNNFYPREAKVQWKVDNALQSGNSQESVTEQDSKDSTYSLSSTLTLSKADYEKHKVYACEVTHQGLSSPVTKSFNRGEC
In the case of B1, in data set [1] (Table 10), the “Maximum Tolerated Dose in SCID mice (MTD)” value is “Below 100 mg/kg” and the “Preclinical rodent therapeutic index (MTD divided by ED)” value is recorded as 10-100. Besides, in data set [1] (single intraperitoneal dose of 100 m/kg (FIG. 18)), the “tolerability in SCID mice” value is listed as “significant signs of toxicity”. In data set [1] (single intraperitoneal dose of 100 m/kg, all mice), the “day at which mice were found dead or had to be euthanized” value lay in the range of 2 to 3 days. For the same molecule, the “antitumor activity, SW-620 xenograft” value in the data set on SW-620 cancer model (IV once at 5, 10 or 15 mg/kg (FIG. 9)) was “inactive even when dosed at 15 mg/kg”. For the same molecule, in data set [2], the “efficacy, BT-474 (FRα neg) xenograft” value is listed as “No efficacy was observed”. Also, the mice with diarrhea with OV-90 cancer model (IV once at 30 mg/kg) is listed as 2 out of 6. Also, the “toxicities observed in OV-90 xenograft study” value with OV-90 cancer model is “significant toxicities were observed”. In the data set on OV-90 cancer model (mouse, in vivo, iv, 30 mg/kg), the “mice presenting signs of prostration” value is recorded as 3 out of 6; the “mice showing unkempt appearances (dull and matted haircoat)” value is on record as 6 out of 6. Further, the “antitumor activity, KB xenograft” value in the data set on KB cancer model is “equally active at a dose of 3 mg/kg and above”. The “kd” value in data set [3] came to 0.000327 s⁻¹. Besides, the “Effective dose (ED) range based on in vivo xenografts experiments (SCID mice)” value in the data set with cancer xenograft models lay within 1 to 10 mg/kg.

B2: F-LALA-VA-EXA (conjugate)
heavy: EVQLVESGGGVVQPGRSLRLSCSASGFTFSGYGLSWVRQAPGKGLEWVAMISSGGSYTYYADSVKGRFAISRDNAKNTLFLQMDSLRPEDTGVYFCARHGDDPAWFAYWGQGTPVTVSSASTKGPSVFPLAPSSKSTSGGTAALGCLVKDYFPEPVTVSWNSGALTSGVHTFPAVLQSSGLYSLSSVVTVPSSSLGTQTYICNVNHKPSNTKVDKKV[gap - human IgG1 Fc with changes]
light: DIQLTQSPSSLSASVGDRVTITCSVSSSISSNNLHWYQQKPGKAPKPWIYGTSNLASGVPSRFSGSGSGTDYTFTISSLQPEDIATYYCQQWSSYPYMYTFGQGTKVEIKRTVAAPSVFIFPPSDEQLKSGTASVVCLLNNFYPREAKVQWKVDNALQSGNSQESVTEQDSKDSTYSLSSTLTLSKADYEKHKVYACEVTHQGLSSPVTKSFNRGEC
modifications: N-methyl
Consider B2, for which the “Maximum Tolerated Dose in SCID mice (MTD)” value in data set [1] (Table 10) is on record as “Above 200 mg/kg”. Besides, the “tolerability in SCID mice” value in data set [1] (single intraperitoneal dose of 200 mg/kg, 21 days (FIG. 18)) is “well tolerated with no apparent signs of toxicity”. The “antitumor activity, SW-620 xenograft” value in the data set on SW-620 cancer model (IV once at 1, 3 and 6 mg/kg, NEG-VA-EXA 6 mg/kg (FIG. 10)) is “equally highly active at a dose of 1 mg/kg and above”. Further, the “efficacy, BT-474 (FRα neg) xenograft” value in data set [2] was “No efficacy was observed”. For the same molecule, the “efficacy, OV-90 xenograft” value in the data set on OV-90 cancer model (IV once at 10 mg/kg (FIG. 12)) is “outperformed both F-VA-EXA and M-SORAV”; with OV-90 cancer model (IV once at 3, 6 and 12 mg/kg (FIG. 15)), “outperformed M-SORAV”. Further, the “toxicities observed in OV-90 xenograft study” value in the data set on OV-90 cancer model is “No toxicities were observed”. For the same molecule, in the data set with KB cancer model, the “antitumor activity, KB xenograft” value was “equally active at a dose of 3 mg/kg and above”. In addition, the “kd” value in data set [3] is 0.0368 s⁻¹. Moreover, in the data set on cancer xenograft models, the “Effective dose (ED) range based on in vivo xenografts experiments (SCID mice)” value was in the range of 1 to 10 mg/kg.

Source of the values: patent US20260232826A1, “ANTIBODY-DRUG CONJUGATES AND THEIR USES” (Mablink Bioscience, priority 2022, published 2026).
